Measured affinities in a library of Ab-91 heavy chain variants

From the AlphaSeq antibody data of Engelhart et al. 2022 (doi:10.1038/s41597-022-01779-4), copy in the FLAb collection.

All variants were tested on one target, the spike HR2 peptide PDVDLGDISGINAS (SARS-CoV-2).

Parent scFv Ab-91: VL joined to VH by a 15-residue (Gly4Ser)3 linker. Changes lie in the heavy chain CDRs alone.
VL: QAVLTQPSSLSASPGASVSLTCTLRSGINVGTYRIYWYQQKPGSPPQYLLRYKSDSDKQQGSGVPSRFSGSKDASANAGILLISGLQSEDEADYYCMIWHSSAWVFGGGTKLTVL
VH: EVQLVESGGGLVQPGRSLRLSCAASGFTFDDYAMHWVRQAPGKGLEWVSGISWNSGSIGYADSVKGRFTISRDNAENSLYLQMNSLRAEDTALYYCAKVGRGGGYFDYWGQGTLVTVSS

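The starting antibody came from a phage panning campaign against this peptide. Variants in AAYL51 differ from the parent at up to three CDR positions; double and triple changes were sampled at random. In AlphaSeq, yeast of one mating type display the scFv and yeast of the other type display the target. Pairs that bind mate more often; barcode pairs of the diploids are counted by sequencing. Scores were corrected for input abundance and mapped to Kd with protein pairs of known affinity run in the same pool. Each pool was mated in three replicate cultures.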

Each variant is given by its three heavy chain CDRs, as the data file delimits them; those of the parent are GFTFDDYAMH, GISWNSGSIGYADSVK, VGRGGGYFDY.
This list gathers variants with a substitution at W53 (VH, numbered from residue 1).
Numbers give log10(Kd / nM), so 0 is 1 nM and 3 is 1 µM. Smaller is tighter.
Averages over replicates are reported, and they cover detected replicates only.
"ND" means that the variant was in the library but no mating with the target was seen in that replicate; the authors take this as a sign of poor binding, and no number exists.
For reference, the parent read 1.86 as the reference entry and 0.88 as a member of this library.

| CDR-H1 | CDR-H2 | CDR-H3 | replicates, log10 nM | mean, log10 nM | control signals |
|---|---|---|---|---|---|
| GFTFDDYAMH | GISDNSLSIGYADSVK | VGRGPGYFDY | 4.23 / 3.64 / 3.04 | 3.64 | 1 of 9 (3.34) |
| GFTFDDQAMH | GISCNSGSIGYADSVK | VGRGGGYFDY | ND / 5.86 / ND | 5.86 | 2 of 9 (3.70) |
| GFTFDDCAMH | GISHNSGSIGYADSVK | VGRGGGYFDY | 2.64 / 2.39 / 2.17 | 2.40 | 2 of 9 (4.36) |
| GFTFDDYAMQ | GISGNSGSIGYADSVK | MGRGGGYFDY | ND / 4.12 / ND | 4.12 | 0 of 9 |
| GPTFDDYAMH | GVSMNSGSIGYADSVK | VGRGGGYFDY | 4.91 / ND / ND | 4.91 | 3 of 9 (5.18) |
| GFTFDDYAMH | GISTNSGSIGYADSVK | VRRGGGYPDY | ND / ND / ND | ND | 1 of 9 (2.81) |
| GFVFDWYAMH | GISGNSGSIGYADSVK | VGRGGGYFDY | 0.21 / 0.23 / -0.59 | -0.05 | 5 of 9 (4.19) |
| GFTFDDYAMH | GISLNSGSCGYADSVK | VGRGGGRFDY | ND / ND / ND | ND | 1 of 9 (3.94) |
| GFTMDDLAMH | GISHNSGSIGYADSVK | VGRGGGYFDY | ND / 4.43 / ND | 4.43 | 1 of 9 (4.19) |
| GFTFDDYAMH | GISQNSGPIGYADSVK | IGRGGGYFDY | 4.54 / 5.04 / ND | 4.79 | 7 of 9 (4.31) |
| GFTFDNYAMH | TISNNSGSIGYADSVK | VGRGGGYFDY | 4.58 / 6.60 / ND | 5.59 | 3 of 9 (5.31) |
| GFTFDDYAMH | GISENSGSIGQADSVK | VGRGGGYFWY | 3.02 / ND / ND | 3.02 | 2 of 9 (4.57) |
| GFTFDDYAMH | GYSGNSGSIGYLDSVK | VGRGGGYFDY | ND / ND / ND | ND | 2 of 9 (3.54) |
| GFTFDDYAMH | GISVNSASIGYADSVN | VGRGGGYFDY | ND / ND / ND | ND | 0 of 9 |
| GFTFDDYAMH | GISENSGSIGYADSVF | VGRGGGMFDY | 5.37 / 4.29 / 4.42 | 4.69 | 6 of 9 (4.78) |
| GFTFDDYAMH | GISCNSGSIGYADSAK | VDRGGGYFDY | 4.94 / ND / ND | 4.94 | 1 of 9 (3.47) |
| GFTFDNYAMH | GISCNSGSIGYADSVK | VGRGGGYFCY | ND / ND / ND | ND | 0 of 9 |
| GFTFDDYAMH | GISNNSGSIGYAWSVK | VGRTGGYFDY | 3.76 / ND / ND | 3.76 | 0 of 9 |
| GFTFDDYAMH | GIFINSGSIGYADSVK | VGRGGGYFDY | ND / ND / ND | ND | 2 of 9 (4.53) |
| GFRFDDYAMH | GISKNSGSNGYADSVK | VGRGGGYFDY | ND / ND / 1.89 | 1.89 | 0 of 9 |
| GFVFDDYAMH | GISLNSGVIGYADSVK | VGRGGGYFDY | ND / 4.80 / ND | 4.80 | 3 of 9 (4.72) |
| GFTFDDYAMH | GSSINSGSIGYADSVH | VGRGGGYFDY | ND / 5.54 / ND | 5.54 | 2 of 9 (4.76) |
| GFTFDDYAMH | GISHNSGSIGYADSVK | VGRGGGYLDY | 2.84 / 3.06 / 2.42 | 2.77 | 1 of 9 (3.13) |
| GFTFDDYAMH | GISPNSGSIGYADSVG | VGRGGFYFDY | 1.26 / 1.23 / 0.36 | 0.95 | 7 of 9 (4.78) |
| GFTFDDYAMH | GRGINSGSIGYADSVK | VGRGGGYFDY | ND / ND / ND | ND | 1 of 9 (4.19) |
| GFTFDDYAMH | GSSGNSGAIGYADSVK | VGRGGGYFDY | ND / 3.33 / ND | 3.33 | 1 of 9 (3.83) |
| GFTFQDYAMH | GISFNSGSIGYADSVK | VGQGGGYFDY | 0.14 / 0.18 / -0.83 | -0.17 | 4 of 9 (3.70) |
| GFTYDDYAMH | GISMNSGSIGYADSVK | VGRGGGYFDE | 1.44 / 1.41 / 0.90 | 1.25 | 5 of 9 (5.25) |
| GFTFDDYAMH | GISMNSGSIGYNDCVK | VGRGGGYFDY | 1.74 / 1.69 / 1.48 | 1.64 | 5 of 9 (4.93) |
| AFTFDDYAMH | GIPGNSGSIGYADSVK | VGRGGGYFDY | 3.70 / ND / ND | 3.70 | 0 of 9 |
| GFTFDDYAMH | GISYNSGDIGYADSVK | VGRGGGYFDY | ND / ND / ND | ND | 0 of 9 |
| TFTFDDYAMH | GISNNSGSIGYADNVK | VGRGGGYFDY | ND / 4.78 / ND | 4.78 | 7 of 9 (4.55) |
| AFTFDDYAMH | GISHNSGSIGYADSVK | VGRGGGYFGY | 4.53 / ND / ND | 4.53 | 1 of 9 (4.04) |
| GFTFDDYAMH | GISFNSGSGGYADQVK | VGRGGGYFDY | ND / ND / ND | ND | 0 of 9 |
| GFTFDDYAMH | GISQNSGCIGYADSVK | VGRGGGYFDA | 2.61 / 2.79 / 2.85 | 2.75 | 4 of 9 (4.77) |
| GFTFCDYAMH | GISYNSGSIGYADSVK | VGRGGGYSDY | ND / ND / ND | ND | 1 of 9 (3.39) |
| GFTFDDYAMH | GISDNSGSIGYADSVK | PWRGGGYFDY | 3.93 / ND / ND | 3.93 | 0 of 9 |
| GFTFDDYAMH | GRSKNSGSIGYRDSVK | VGRGGGYFDY | ND / ND / ND | ND | 0 of 9 |
| GFTFDDYAMH | GISTNSGSIGYADSVG | VGRGGGSFDY | 1.20 / 1.17 / 0.44 | 0.94 | 2 of 9 (3.62) |

A selection of 4 entries from above:

| CDR-H1 | CDR-H2 | CDR-H3 | replicates, log10 nM | mean, log10 nM | control signals |
|---|---|---|---|---|---|
| GFTFDDYAMH | GISVNSASIGYADSVN | VGRGGGYFDY | ND / ND / ND | ND | 0 of 9 |
| GFTFDDYAMH | GISDNSLSIGYADSVK | VGRGPGYFDY | 4.23 / 3.64 / 3.04 | 3.64 | 1 of 9 (3.34) |
| TFTFDDYAMH | GISNNSGSIGYADNVK | VGRGGGYFDY | ND / 4.78 / ND | 4.78 | 7 of 9 (4.55) |
| GPTFDDYAMH | GVSMNSGSIGYADSVK | VGRGGGYFDY | 4.91 / ND / ND | 4.91 | 3 of 9 (5.18) |

Nonspecific signal, from three strains lacking the peptide, appeared in 21% of pairings of library AAYL51, centred on 4.54 (5% of these signals below 3.26); values are not corrected for it. For each scFv, signals with the empty controls are counted beside the result, with their mean in brackets.